Patent US12590088B2 (dated 2026)

Protein sequences, listed by entry. Tags and fused reporters are not part of them. Lines headed by an entry give the natural chain unless they say otherwise; changes in a name come on top.
UniProt P23458: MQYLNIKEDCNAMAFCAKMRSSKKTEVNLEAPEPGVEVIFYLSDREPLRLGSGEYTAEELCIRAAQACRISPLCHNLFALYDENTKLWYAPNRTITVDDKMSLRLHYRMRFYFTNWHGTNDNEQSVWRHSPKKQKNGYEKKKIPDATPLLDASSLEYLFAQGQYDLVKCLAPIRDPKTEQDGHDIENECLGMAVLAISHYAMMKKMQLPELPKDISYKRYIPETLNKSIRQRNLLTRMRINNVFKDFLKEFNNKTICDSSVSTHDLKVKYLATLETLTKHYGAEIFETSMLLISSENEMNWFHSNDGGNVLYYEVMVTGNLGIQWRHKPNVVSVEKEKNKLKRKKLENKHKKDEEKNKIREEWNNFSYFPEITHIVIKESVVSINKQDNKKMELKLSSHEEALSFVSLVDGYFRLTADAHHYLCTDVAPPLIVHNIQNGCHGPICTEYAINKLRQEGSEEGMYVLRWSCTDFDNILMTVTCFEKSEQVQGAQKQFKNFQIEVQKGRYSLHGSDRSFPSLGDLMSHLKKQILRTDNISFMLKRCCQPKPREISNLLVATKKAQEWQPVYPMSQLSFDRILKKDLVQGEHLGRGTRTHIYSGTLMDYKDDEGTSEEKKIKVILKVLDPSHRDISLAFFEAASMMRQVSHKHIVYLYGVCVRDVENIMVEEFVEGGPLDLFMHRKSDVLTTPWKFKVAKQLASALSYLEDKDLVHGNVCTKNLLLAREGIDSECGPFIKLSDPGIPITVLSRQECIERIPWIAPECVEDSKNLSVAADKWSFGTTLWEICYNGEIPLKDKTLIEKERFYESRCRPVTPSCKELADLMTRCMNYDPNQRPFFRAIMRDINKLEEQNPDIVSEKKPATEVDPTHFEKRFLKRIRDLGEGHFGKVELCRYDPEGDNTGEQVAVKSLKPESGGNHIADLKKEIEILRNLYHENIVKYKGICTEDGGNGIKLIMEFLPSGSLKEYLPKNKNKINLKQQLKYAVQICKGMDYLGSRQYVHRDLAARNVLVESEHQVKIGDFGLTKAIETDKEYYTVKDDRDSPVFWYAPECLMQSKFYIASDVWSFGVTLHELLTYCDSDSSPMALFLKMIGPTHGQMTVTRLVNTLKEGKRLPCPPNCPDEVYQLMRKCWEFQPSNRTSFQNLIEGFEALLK

Target: JAK1 (Homo sapiens, UniProt P23458)
Assay: JAK1 IC50 measurement
Conditions: read-out: IC50(μM) JAK1

Substance: 4-((3-((3-Chlorobenzyl)amino)cyclobutyl)amino)-1H-pyrrolo[2,3-b]pyridine-5-carboxamide [Compound 16d]
- IC50: 0.0814 µM
